In this assay the target is human serotonin transporter (Homo sapiens, UniProt P31645). Put plainly: ^3H-serotonin uptake in platelets.

The chains behind the UniProt entries cited, without tags or fusion partners.
UniProt P31645, whole entry: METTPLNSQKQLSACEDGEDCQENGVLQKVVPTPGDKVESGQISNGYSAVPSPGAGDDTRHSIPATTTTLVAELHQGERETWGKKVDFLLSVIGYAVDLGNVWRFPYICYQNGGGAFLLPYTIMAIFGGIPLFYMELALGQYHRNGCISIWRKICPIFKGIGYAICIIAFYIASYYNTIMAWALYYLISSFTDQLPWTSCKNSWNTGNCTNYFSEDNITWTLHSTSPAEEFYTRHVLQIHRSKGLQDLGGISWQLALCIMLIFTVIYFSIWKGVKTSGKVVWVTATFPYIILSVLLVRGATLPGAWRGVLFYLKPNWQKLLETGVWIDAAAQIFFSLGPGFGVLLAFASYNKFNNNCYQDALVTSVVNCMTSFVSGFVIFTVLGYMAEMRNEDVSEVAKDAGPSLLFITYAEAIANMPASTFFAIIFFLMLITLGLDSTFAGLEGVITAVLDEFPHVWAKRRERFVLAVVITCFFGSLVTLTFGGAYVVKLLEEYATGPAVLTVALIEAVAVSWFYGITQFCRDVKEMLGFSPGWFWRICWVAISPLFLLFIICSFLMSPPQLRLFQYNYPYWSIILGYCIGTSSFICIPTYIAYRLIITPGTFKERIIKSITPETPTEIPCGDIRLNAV

For orientation: IC50 means the concentration at which inhibition is half-maximal. Read a low IC50 as greater potency. For orientation: inhibition means how much of the control response was suppressed.

`CC(C)=CCCC1(C)C(CC=C(C)C)CC2(CC=C(C)C)C(=O)C(CC=C(C)C)=C(O)C1(C(=O)C(C)C)C2=O` (centres unmarked) [Hyperforin] returned a half-inhibitory concentration (IC50) of 887 nM. The inhibition at 5 µM (read-out: uptake inhibition) is around 75%.

Source of the values: patent publication EP1034782A1, “Treatment of depression by using compounds which elevate the intracellular sodium concentration” (Singer, Andrea, priority 1999, dated 2000).
